# In US20140107062A1, “COMPOSITIONS AND METHODS FOR TREATING OR PREVENTING DISEASES OF BODY PASSAGEWAYS” (Aravasc Inc., priority 2007, published 2014):
# Assay: Solubility of analytes and polymer in solvents, dissolution media and water
# Format: physicochemical
smiles,measurement,setting,value
"CC1(C)C(/C=C/C=C/C=C/C=C2\N(CCCCS(=O)(=O)O)c3ccc4ccccc4c3C2(C)C)=[N+](CCCCS(=O)(=O)[O-])c2ccc3ccccc3c21 [ICG, Indocyanine green]",solubility,"DMF, organic solvent or mixture",46.2 mg/mL
same,solubility,"DMSO, organic solvent or mixture",62.2 mg/mL
same,solubility,"THF, organic solvent or mixture",< 0.5 mg/mL
same,solubility,"acetonitrile, organic solvent or mixture",0.03 mg/mL
same,solubility,dissolution media,> 5 mg/mL
same,solubility,water,> 5 mg/mL
